Columns and labels:
Conditions in all cases: composite Z-score vs DMSO; Conc 20 μM
C2C12 myotubes = tested on: C2C12 myotubes
[1] = tested on: cellular dehydrogenase activity
[2] = tested on: mitochondrial membrane potential
reactive oxygen species = tested on: reactive oxygen species
OXPHOS gene expression = tested on: OXPHOS gene expression
nuOXPHOS transcripts = tested on: nuOXPHOS transcripts
mtOXPHOS transcripts = tested on: mtOXPHOS transcripts
cytochrome c = tested on: cytochrome c

CC(C)C[C@H](NC(=O)[C@@H]1CCCN1C(=O)[C@@H](N)C(C)C)C(=O)O [diprotin B]
Viability (C2C12 myotubes): −0.639 | MTT [1]: −0.589 | ΔΨm [2]: 0.153 | ROS (reactive oxygen species): 0.689 | GE-HTS (OXPHOS gene expression): −0.522 | nucOX (nuOXPHOS transcripts): −0.682 | mitoOX (mtOXPHOS transcripts): −0.126 | cyt c (cytochrome c): −1.537

— patent US20090143279A1 (priority 2007, published 2009)
